Measured values: US20040082554A1, “Neuroactive steroid derivatives and method of use” (priority 2003, published 2004)

Tests used:
[1] = test system: mice; test: Tail flick test (latency to remove the tail from the light source); type: in vivo; conditions: 3α5βHS 10 and 15 mg/kg i.p.; cut-off time 10 seconds
Procedure: FIG. 9. […] Following the injection the mice were tested for every 10 min for 120 min. The latency to remove the tail from the light source was used as a measure of analgesia. […] The values are mean+SEM for 10-15 mice for each group. Data were analyzed using a one-way ANOVA followed by Fisher's LSD.* Denotes significance compared to control.
FIG. 10. […] Mice were injected with PACME (5, 10 or 15 mg/kg). Following the injection the mice were tested for every 10 min for 120 min. The latency to remove the tail from the light source was used as a measure of analgesia. […] Data were analyzed using a one-way ANOVA followed by Fisher's LSD. The values are mean±SEM for 10-15 mice for each group.* Denotes significance compared to control.
The data were analyzed using a one-way ANOVA followed by Fisher's LSD.

[2] = Determination of pregnanolone hemisuccinate tissue levels in whole brain after i.p. injection (HPLC ESI-MS); conditions: rat, 10 mg/kg i.p.; for 3α5βHS level in brain tissue: whole brain
[3] = Levels of pregnanolones in the brain following 3α5βHS injection; conditions: following 3α5βHS 10 mg/kg, 20 min post injection

## pregnanolone hemisuccinate [3α5βHS]
[1]
  lengthening of tail flick latency relative to cut-off time: near maximal lengthening of the latency time
[2]
  time until 3α5βHS is detected in the brain: ≤ 10 min
[2]; 10 min post injection
  3α5βHS level in brain tissue: 3.5 nmol/g
[2]; 60 min post injection
  3α5βHS level in brain tissue: 0.5 nmol/g
[2]; post-injection
  time of peak 3α5βHS level in brain: 10 min
[3]
  levels of pregnanolones present in the brain: 10.9±2.8 pmol/g tissue
